Data published in ChEMBL document CHEMBL1140336, “Synthesis, structure-activity relationships, and biological evaluation of fatty alcohol phosphates as lysophosphatidic acid receptor ligands, activators of PPARgamma, and inhibitors of autotaxin” (J Med Chem, 2005).

By UniProt entry, the sequences of proteins in these tests, tags left out. Where a name states a change or a piece, a line headed by the entry shows the natural chain unless it says otherwise.
UniProt Q92633: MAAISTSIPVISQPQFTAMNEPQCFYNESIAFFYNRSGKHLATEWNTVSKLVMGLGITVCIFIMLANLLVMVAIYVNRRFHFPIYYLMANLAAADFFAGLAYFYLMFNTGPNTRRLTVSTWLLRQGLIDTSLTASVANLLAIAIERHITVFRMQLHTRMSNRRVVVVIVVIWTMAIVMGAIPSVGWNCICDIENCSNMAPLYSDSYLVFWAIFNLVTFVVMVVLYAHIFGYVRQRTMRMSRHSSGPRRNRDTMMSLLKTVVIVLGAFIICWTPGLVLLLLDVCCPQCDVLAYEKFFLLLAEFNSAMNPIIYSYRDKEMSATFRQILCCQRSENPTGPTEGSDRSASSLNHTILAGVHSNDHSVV

Target: Lysophosphatidic acid receptor 1 (Homo sapiens, UniProt Q92633)
Test: Maximal efficacy in induction of [Ca2+] transients in RH7777 rat hepatoma cells expressing LPA1 receptor
Assay type: functional, cell-based
Summary of the method: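 Agonist mode in RH7777 cells stably expressing the named LPA receptor, serum-starved 6-8 h, Fura-2 AM loaded. Increasing compound concentrations were added alone and the Ca2+ transient was read as the 340/380 ratio peak minus baseline. Emax = compound maximal response as a percentage of the LPA 18:1 maximal response.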

CCCCCCCC/C=C/CCCCCCCCOP(O)(O)=S
Emax: 80%
